Laboratory results from patent US6555692B1, “Preparation and use of bifunctional molecules having DNA sequence binding specificity” (California Institute of Technology, priority 1996, dated 2003).

Tests used:
5′-TGTAACA-3′ = assay: DNase I footprint titration; details: pH 7.0, 22° C.
5′-TGGACA-3′ = assay: DNase I footprint titration; details: single base pair mismatch sequence; pH 7.0, 22° C.
5′-TGGAACA-3′ = assay: DNase I footprint titration
5′-TGTTAACA-3′ = assay: DNase I footprint titrations; details: 8 bp match site
5′-TGTGAACA-3′ = assay: DNase I footprint titrations; details: single base pair mismatch sequence
5′-AGGGAATCCCT-3′ = assay: Quantitative DNase I footprint titration; details: 5′-AGGGAGTCCCT-3′ vs 5′-AGGGAATCCCT-3′

CN(C)CCCNC(=O)CCNC(=O)c1cc(NC(=O)c2cc(NC(=O)c3cc(NC(=O)c4cc(NC(=O)c5nc(NC(=O)CCCNC(=O)c6cc(NC(=O)c7cc(NC(=O)c8cc(NC(=O)c9cc(NC(=O)c%10nccn%10C)cn9C)cn8C)cn7C)cn6C)cn5C)cn4C)cn3C)cn2C)cn1C [ImPyPyPyPy-γ-ImPyPyPyPy-β-Dp]
equilibrium association constant Ka (5′-TGTAACA-3′): 1.2e+10 M⁻¹ | Ka (5′-TGGACA-3′): 6.8e+08 M⁻¹ | reduction of affinity of the 5′-TGGAACA-3′ complex relative to ImImPyPyPy-γ-ImPyPyPyPy-β-Dp (5′-TGGAACA-3′): 5 fold | loss in binding energy (5′-TGGAACA-3′; 5′-TGGAACA-3′ complexes): ~4.2 kJ/mol

CN(C)CCCNC(=O)CCNC(=O)c1cc(NC(=O)c2cc(NC(=O)CCNC(=O)c3cc(NC(=O)c4cc(NC(=O)c5nc(NC(=O)CCCNC(=O)c6cc(NC(=O)c7cc(NC(=O)CCNC(=O)c8cc(NC(=O)c9cc(NC(=O)c%10nccn%10C)cn9C)cn8C)cn7C)cn6C)cn5C)cn4C)cn3C)cn2C)cn1C [ImPyPy-β-PyPy-γ-ImPyPy-β-PyPy-β-Dp]
equilibrium association constant Ka (5′-TGTTAACA-3′): 2e+10 M⁻¹ | Ka (5′-TGTGAACA-3′): 1e+09 M⁻¹

CN(C)CCCNC(=O)CCNC(=O)c1cc(NC(=O)c2cc(NC(=O)c3cc(NC(=O)c4cc(NC(=O)CCNC(=O)c5cc(NC(=O)c6nc(NC(=O)c7nc(NC(=O)c8nccn8C)cn7C)cn6C)cn5C)cn4C)cn3C)cn2C)cn1C [ImImImPy-β-PyPyPyPy-β-Dp]
lower affinity at β/β mismatch sequence (5′-AGGGAATCCCT-3′): at least 20 fold

CN(C)CCCNC(=O)CCNC(=O)c1cc(NC(=O)c2cc(NC(=O)c3cc(NC(=O)c4cc(NC(=O)c5cc(NC(=O)c6nc(NC(=O)CCCNC(=O)c7cc(NC(=O)c8cc(NC(=O)c9cc(NC(=O)c%10cc(NC(=O)c%11cc(NC(=O)c%12nccn%12C)cn%11C)cn%10C)cn9C)cn8C)cn7C)cn6C)cn5C)cn4C)cn3C)cn2C)cn1C [ImPyPyPyPyPy-γ-ImPyPyPyPyPy-β-Dp]
equilibrium association constant Ka (5′-TGTTAACA-3′): 4e+09 M⁻¹ | Ka (5′-TGTGAACA-3′): 2e+08 M⁻¹
